Values of other authors, collected in patent US8653307B2, “Liphagal enantiomers and their derivatives and precursors, and enantioselective methods of making the same” (California Institute of Technology, priority 2011, dated 2014).

Sequences of proteins named here, by UniProt entry; tags and fusion partners are left off.
UniProt P42336, whole entry: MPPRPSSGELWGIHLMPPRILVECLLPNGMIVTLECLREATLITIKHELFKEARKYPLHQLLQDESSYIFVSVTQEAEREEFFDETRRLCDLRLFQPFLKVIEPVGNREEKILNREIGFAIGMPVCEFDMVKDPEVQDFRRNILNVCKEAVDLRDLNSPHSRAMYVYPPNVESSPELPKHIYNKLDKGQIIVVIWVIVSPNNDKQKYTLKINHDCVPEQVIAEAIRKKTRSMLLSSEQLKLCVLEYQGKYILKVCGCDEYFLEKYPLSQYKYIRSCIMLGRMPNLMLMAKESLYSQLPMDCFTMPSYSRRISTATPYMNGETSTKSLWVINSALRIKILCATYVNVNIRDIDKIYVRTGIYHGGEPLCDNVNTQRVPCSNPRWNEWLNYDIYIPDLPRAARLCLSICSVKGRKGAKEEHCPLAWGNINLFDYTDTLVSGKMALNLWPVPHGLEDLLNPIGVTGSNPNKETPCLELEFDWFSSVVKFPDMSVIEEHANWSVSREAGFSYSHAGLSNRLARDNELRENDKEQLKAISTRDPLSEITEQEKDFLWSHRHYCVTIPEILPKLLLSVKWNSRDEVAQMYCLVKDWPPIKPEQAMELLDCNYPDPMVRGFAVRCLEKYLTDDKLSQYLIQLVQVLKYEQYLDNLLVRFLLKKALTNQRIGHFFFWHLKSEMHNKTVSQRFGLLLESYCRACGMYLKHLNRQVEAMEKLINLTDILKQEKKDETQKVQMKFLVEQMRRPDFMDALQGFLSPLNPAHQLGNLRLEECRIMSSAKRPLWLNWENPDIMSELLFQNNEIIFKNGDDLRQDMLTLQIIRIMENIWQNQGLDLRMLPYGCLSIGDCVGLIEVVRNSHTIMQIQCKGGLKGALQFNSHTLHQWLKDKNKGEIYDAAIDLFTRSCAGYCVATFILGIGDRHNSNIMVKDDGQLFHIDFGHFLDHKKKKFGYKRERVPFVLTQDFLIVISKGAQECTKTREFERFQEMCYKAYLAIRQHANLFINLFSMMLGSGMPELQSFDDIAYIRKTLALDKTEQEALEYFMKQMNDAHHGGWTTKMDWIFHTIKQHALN

Target: PI3Kα (Homo sapiens, UniProt P42336)

liphagal
potency against PI3Kα compared to any other PI3K: at least 10 fold
IC50 (read-out: IC50 against PI3Kα): 100 nM
